Sequences of proteins named here, by UniProt entry; tags and fusion partners are left off. A change or cut given only in a name is not applied to a line headed by its entry.
UniProt P49674: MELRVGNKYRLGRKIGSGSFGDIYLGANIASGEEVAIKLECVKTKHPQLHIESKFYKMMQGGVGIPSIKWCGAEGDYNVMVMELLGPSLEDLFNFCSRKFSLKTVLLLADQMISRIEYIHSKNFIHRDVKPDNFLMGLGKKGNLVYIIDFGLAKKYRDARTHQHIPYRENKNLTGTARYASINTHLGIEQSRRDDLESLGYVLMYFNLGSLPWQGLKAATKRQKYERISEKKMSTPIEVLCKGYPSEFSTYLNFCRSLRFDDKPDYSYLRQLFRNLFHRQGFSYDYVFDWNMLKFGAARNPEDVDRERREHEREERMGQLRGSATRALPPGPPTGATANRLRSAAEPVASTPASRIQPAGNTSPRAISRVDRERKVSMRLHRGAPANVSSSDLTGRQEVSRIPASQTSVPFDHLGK
UniProt P48730: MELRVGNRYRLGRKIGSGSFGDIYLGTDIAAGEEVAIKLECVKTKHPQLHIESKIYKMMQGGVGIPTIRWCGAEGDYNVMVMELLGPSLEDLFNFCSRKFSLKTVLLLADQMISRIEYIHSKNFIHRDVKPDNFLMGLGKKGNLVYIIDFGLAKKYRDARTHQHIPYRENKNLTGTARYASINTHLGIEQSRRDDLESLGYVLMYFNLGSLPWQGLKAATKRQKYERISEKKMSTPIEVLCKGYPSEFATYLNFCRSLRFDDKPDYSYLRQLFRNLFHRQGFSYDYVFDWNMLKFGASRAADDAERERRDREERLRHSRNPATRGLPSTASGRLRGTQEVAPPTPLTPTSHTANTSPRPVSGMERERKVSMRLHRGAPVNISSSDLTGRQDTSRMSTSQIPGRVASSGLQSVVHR

According to US9556179B2 (BRISTOL-MYERS SQUIBB COMPANY, priority 2012, dated 2017):

Target: CK1ε (Homo sapiens (Human), UniProt P49674)
Assay: CK1ε kinase assay (Caliper LABCHIP electrophoretic separation of fluoresceinated peptide substrate and product)
Type: biochemical
Settings: 200 pM enzyme, 50 μM ATP, 22 hours at room temperature
Procedure: (§1) CK1ε and CK1δ Kinase Assays
(§2) The kinase assay was performed in V-bottom 384-well plates. […] The reaction was incubated at room temperature for 22 hours and terminated by adding 45 μl of 35 mM EDTA to each sample. The reaction mixture was analyzed on the Caliper LABCHIP®3000 (Caliper, Hopkinton, Mass.) by electrophoretic separation of the unphosphorylated substrate and phosphorylated product. […] Compounds were dissolved at 10 mM in dimethylsulfoxide (DMSO) and evaluated at eleven concentrations. IC50 values were derived by non-linear regression analysis.

| IC50 [nM] | SMILES |
| --- | --- |
| 0.943 | O=C(Nc1cn2nc(-c3c(-c4ccc(F)cc4)ncn3C3CCNCC3)ccc2n1)c1ccncc1 [Compound 1, N-(6-(4-(4-fluorophenyl)-1-(piperidin-4-yl)-1H-imidazol-5-yl)imidazo[1,2-b]pyridazin-2-yl)isonicotinamide] |
| 0.676 | O=C(Nc1cn2nc(-c3c(-c4ccc(F)cc4)ncn3C3CCN(Cc4ncco4)CC3)ccc2n1)c1ccnc(F)c1 [Compound 29, 2-fluoro-N-(6-(4-(4-fluorophenyl)-1-(1-(oxazol-2-ylmethyl)piperidin-4-yl)-1H-imidazol-5-yl)imidazo[1,2-6]pyridazin-2-yl)isonicotinamide] |
| 10.2 | O=C(Nc1cn2nc(-c3c(-c4ccc(F)cc4)nc4ccccn34)ccc2n1)C1CC1 [Compound 185, N-(6-(2-(4-fluorophenyl)imidazo[1,2-a]pyridin-3-yl)imidazo[1,2-b]pyridazin-2-yl)cyclopropanecarboxamide] |
| 0.233 | O=C(Nc1cn2nc(-c3c(-c4ccc(F)cc4)ncn3C3CCN(C(=O)C4CC(F)(F)C4)CC3)ccc2n1)c1ccnc(F)c1 [Compound 67, N-(6-(1-(1-(3,3-difluorocyclobutanecarbonyl)piperidin-4-yl)-4-(4-fluorophenyl)-1H-imidazol-5-yl)imidazo[1,2-b]pyridazin-2-yl)-2-fluoroisonicotinamide] |
| 0.811 | O=C(Nc1cn2nc(-c3c(-c4ccc(F)cc4)ncn3C3CCN(C(=O)C4CCC4)CC3)ccc2n1)c1ccnc(F)c1 [Compound 68, N-(6-(1-(1-(cyclobutanecarbonyl)piperidin-4-yl)-4-(4-fluorophenyl)-1H-imidazol-5-yl)imidazo[1,2-b]pyridazin-2-yl)-2-fluoroisonicotinamide] |

Target: CK1δ (Homo sapiens (Human), UniProt P48730)
Assay: CK1δ kinase assay (Caliper LABCHIP electrophoretic separation of fluoresceinated peptide substrate and product)
Type: biochemical
Settings: 200 pM enzyme, 50 μM ATP, 22 hours at room temperature
Procedure: as §1, §2

| IC50 [nM] | SMILES |
| --- | --- |
| 0.295 | O=C(Nc1cn2nc(-c3c(-c4ccc(F)cc4)ncn3CC(O)CO)ccc2n1)c1ccnc(F)c1 (centres unmarked) [Compound 235, N-(6-(1-(2,3-dihydroxypropyl)-4-(4-fluorophenyl)-1H-imidazol-5-yl)imidazo[1,2-b]pyridazin-2-yl)-2-fluoroisonicotinamide, dimethyl-formamide] |
| 0.142 | O=C(Nc1cn2nc(-c3c(-c4ccc(F)cc4)ncn3C3CCN(C(=O)OCCC(F)(F)F)CC3)ccc2n1)c1ccnc(F)c1 [Compound 83, 3,3,3-trifluoropropyl 4-(5-(2-(2-fluoroisonicotinamido)imidazo[1,2-b]pyridazin-6-yl)-4-(4-fluorophenyl)-1H-imidazol-1-yl)piperidine-1-carboxylate] |
| 0.338 | O=C(Nc1cn2nc(-c3c(-c4ccc(F)cc4)ncn3C3CCN(C(=O)CC(F)(F)F)CC3)ccc2n1)c1cc(F)nc(F)c1 [Compound 94, 2,6-difluoro-N-(6-(4-(4-fluorophenyl)-1-(1-(3,3,3-trifluoropropanoyl)piperidin-4-yl)-1H-imidazol-5-yl)imidazo[1,2-b]pyridazin-2-yl)isonicotinamide] |
| 0.401 | Cc1nc(-c2ccc(F)cc2)c(-c2ccc3nc(NC(=O)c4ccnc(N)c4)cn3n2)n1C [Compound 323, 2-amino-N-(6-(4-(4-fluoro-phenyl)-1,2-dimethyl-1H-imidazol-5-yl)imidazo[1,2-b]pyridazin-2-yl)isonicotin-amide] |
| 0.52 | Cc1nc(-c2ccc(F)cc2)c(-c2ccc3nc(NC(=O)c4cncn4C)cn3n2)n1C [Compound 360, N-(6-(4-(4-fluorophenyl)-1,2-dimethyl-1H-imidazol-5-yl)imidazo[1,2-b]pyridazin-2-yl)-1-methyl-1H-imidazole-5-carboxamide] |
| 13 | Cc1cc(C(=O)Nc2cn3nc(-c4c(-c5ccc(F)cc5)nc(C)n4C)ccc3n2)n[nH]1 [Compound 401, N-(6-(4-(4-fluorophenyl)-1,2-dimethyl-1H-imidazol-5-yl)imidazo[1,2-b]pyridazin-2-yl)-5-methyl-1H-pyrazole-3-carboxamide] |
| 0.534 | Cc1nnsc1C(=O)Nc1cn2nc(-c3c(-c4ccc(F)cc4)nc(C)n3C)ccc2n1 [Compound 351, N-(6-(4-(4-fluorophenyl)-1,2-dimethyl-1H-imidazol-5-yl)imidazo[1,2-b]pyridazin-2-yl)-4-methyl-1,2,3-thiadiazole-5-carboxamide] |
| 6.78 | Cc1nc(-c2ccc(F)cc2)c(-c2ccc3nc(NC(=O)c4ccno4)cn3n2)n1C [Compound 387, N-(6-(4-(4-fluorophenyl)-1,2-dimethyl-1H-imidazol-5-yl)imidazo[1,2-b]pyridazin-2-yl)isoxazole-5-carboxamide] |
| 0.233 | O=C(Nc1cn2nc(-c3c(-c4ccc(F)cc4)ncn3C3CCN(CCO)CC3)ccc2n1)c1ccnc2ccccc12 [Compound 111, N-(6-(4-(4-fluorophenyl)-1-(1-(2-hydroxyethyl)piperidin-4-yl)-1H-imidazol-5-yl)imidazo[1,2-b]pyridazin-2-yl)quinoline-4-carboxamide] |
| 0.413 | Cc1nc(-c2ccc(F)cc2)c(-c2ccc3nc(NC(=O)c4ccncc4)cn3n2)n1C [Compound 301, N-(6-(4-(4-Fluorophenyl)-1,2-dimethyl-1H-imidazol-5-yl)imidazo[1,2-b]pyridazin-2-yl)isonicotinamide] |
| 0.557 | O=C(Nc1cn2nc(-c3c(-c4ccc(F)cc4)ncn3C3CCNCC3)ccc2n1)c1ccnc2ccccc12 [Compound 109, N-(6-(4-(4-fluorophenyl)-1-(piperidin-4-yl)-1H-imidazol-5-yl)imidazo[1,2-b]pyridazin-2-yl)quinoline-4-carboxamide] |
| 0.547 | O=C(Nc1cn2nc(-c3c(-c4ccc(F)cc4)ncn3C3COC3)ccc2n1)c1ccnc(F)c1 [Compound 239, 2-fluoro-N-(6-(4-(4-fluorophenyl)-1-(oxetan-3-yl)-1H-imidazol-5-yl)imidazo[1,2-b]pyridazin-2-yl)iso-nicotinamide] |
| 0.234 | O=C(Nc1cn2nc(-c3c(-c4ccc(F)cc4)ncn3C3CCN(C(=O)c4cocn4)CC3)ccc2n1)c1ccnc(F)c1 [Compound 43, 2-fluoro-N-(6-(4-(4-fluorophenyl)-1-(1-(oxazole-4-carbonyl)piperidin-4-yl)-1H-imidazol-5-yl)imidazo[1,2-6]pyridazin-2-yl)isonicotinamide] |
| 4.86 | Cc1nc(-c2ccc(F)cc2)c(-c2ccc3nc(NC(=O)c4nc[nH]n4)cn3n2)n1C [Compound 368, N-(6-(4-(4-fluorophenyl)-1,2-dimethyl-1H-imidazol-5-yl)imidazo[1,2-b]pyridazin-2-yl)-1H-1,2,4-triazole-3-carboxamide] |
| 0.239 | Cc1nocc1C(=O)N1CCC(n2cnc(-c3ccc(F)cc3)c2-c2ccc3nc(NC(=O)c4ccnc(F)c4)cn3n2)CC1 [Compound 63, 2-fluoro-N-(6-(4-(4-fluorophenyl)-1-(1-(3-methylisoxazole-4-carbonyl)piperidm-4-yl)-1H-imidazol-5-yl)imidazo[1,2-6]pyridazin-2-yl)isonicotinamide] |
| 0.295 | O=C(Nc1cn2nc(-c3c(-c4ccc(F)cc4)ncn3C3CCN(Cc4ccc(O)nc4)CC3)ccc2n1)c1ccnc(F)c1 [Compound 30, 2-fluoro-N-(6-(4-(4-fluorophenyl)-1-(1-((6-hydroxypyridin-3-yl)methyl)piperidin-4-yl)-1H-imidazol-5-yl)imidazo[1,2-b]pyridazin-2-yl)isonicotinamide] |
| 0.343 | Cc1nc(-c2ccc(F)cc2)c(-c2ccc3nc(NC(=O)c4cncnc4)cn3n2)n1C [Compound 350, N-(6-(4-(4-fluorophenyl)-1,2-dimethyl-1H-imidazol-5-yl)imidazo[1,2-b]pyridazin-2-yl)-5-pyrimidinecarboxamide] |

| SMILES | IC50 [nM] |
| --- | --- |
| CC(C)(C)OCCn1cnc(-c2ccc(F)cc2)c1-c1ccc2nc(NC(=O)c3ccnc(F)c3)cn2n1 [Compound 260, N-(6-(1-(2-tert-butoxyethyl)-4-(4-fluorophenyl)-1H-imidazol-5-yl)imidazo[1,2-b]pyridazin-2-yl)-2-fluoroisonicotinamide] | 0.403 |
